## AlphaSeq binding of Ab-14 heavy chain variants to a spike HR2 peptide

Target peptide (SARS-CoV-2 spike, HR2 region): PDVDLGDISGINAS

The variants keep the light chain, the linker and the frameworks of Ab-14 (scFv order VH, a (GGGGS)3 linker, VL).
VH: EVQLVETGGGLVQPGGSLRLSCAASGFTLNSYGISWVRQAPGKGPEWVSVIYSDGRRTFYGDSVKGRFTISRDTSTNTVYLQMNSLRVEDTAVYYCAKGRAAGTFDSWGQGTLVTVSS
VL: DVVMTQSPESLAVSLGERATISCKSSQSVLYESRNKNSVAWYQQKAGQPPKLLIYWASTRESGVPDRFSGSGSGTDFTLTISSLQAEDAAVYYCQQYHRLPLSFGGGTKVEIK

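The parent was found by panning a naive human phage display library on the peptide. Designed CDR sequences, proposed from the first random library and measured here. Group labels follow the data file (Ctrl: baseline library sampled from a position-specific scoring matrix, with some repeated check sequences; GPLM: also part of the Gaussian process libraries; Gen: genetic algorithm; Gibbs: Gibbs sampling; a sequence that several methods proposed may carry one label only). The scFvs were displayed on barcoded MATa yeast, the peptide on MATalpha yeast. Pairs that bind mate more often; barcode pairs of the diploids are counted by sequencing. The ratio of observed to expected reads was calibrated, replicate by replicate, on BCL2-family standards whose Kd was known from biolayer interferometry. The assay was run in six technical replicates.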

Variants are written as CDR1, CDR2 and CDR3 of the heavy chain (limits as in the source). Parent: GFTLNSYGIS, VIYSDGRRTFYGDSVK, GRAAGTFDS.
Values are log10 of the apparent Kd in nM; lower means stronger binding.
Averages over replicates are reported, and they cover detected replicates only.
An entry "nd" has no value in the source: the pair was not observed among the diploids in that replicate. This suggests poor binding but is not conclusive.
A sequence that the file lists under several names has all its replicates listed entry by entry, parted by semicolons.

| CDR-H1 | CDR-H2 | CDR-H3 | group | log10 Kd, replicates | mean log10 Kd (nM) | empty controls |
|---|---|---|---|---|---|---|
| GFTLNSYGIS | VIYSDGRRTFYSDSVK | GMAAGTVDS | Ctrl | nd / nd / nd / nd / nd / nd | nd | 1/18 (1.81) |
| GFTLNSYGYS | VIYSDGRRTFYGDSVK | GRAAVTFDS | Ctrl | nd / nd / nd / nd / nd / nd | nd | 0/18 |
| GFTLNSYGIS | VIYSDGRRTFYGDSVK | GEEAGTFDS | Ctrl+GPLM_Gibbs | 0.75 / nd / 0.18 / 2.13 / 0.86 / nd; 1.49 / 1.56 / 0.96 / 0.71 / 0.94 / 1.19 | 1.08 | 0/36 |
| GFTLNSYGIS | VIYSDGRRQFYIGQVK | GLAAGTFDS | Ctrl | nd / nd / nd / nd / nd / nd | nd | 0/18 |
| GFELNSYGIS | VIYSDGRRTFYGDSVK | GRAQGTTDS | Ctrl | nd / nd / nd / nd / nd / nd | nd | 0/18 |
| GFTLNSYGIS | VIYSDGRRTFYGDNVK | GRLAGTFDS | Ctrl | nd / nd / 2.12 / 0.87 / 2.82 / 1.39 | 1.80 | 0/18 |
| GFTLLLYGIS | VIYSDGRRTFYGDSVK | GRAAGTFDS | Ctrl | nd / 3.73 / nd / nd / nd / nd | 3.73 | 1/18 (1.93) |
| GFTLNSYGIS | VIYADGRRTFYADSVK | GRAAATFDS | Ctrl | nd / nd / 2.30 / nd / 2.66 / nd | 2.48 | 1/18 (2.00) |
| GFTLNSYGIS | VIYADGRRTFYGDSVK | GRAAGTFDP | Ctrl | nd / nd / nd / nd / nd / nd | nd | 0/18 |
| GFTLNSYGIS | VIYSDGRRTFYGDSVK | GRAAGWFDL | Ctrl | nd / nd / nd / nd / nd / nd | nd | 0/18 |
| GFTINDYGIS | VIYSDGRRTFYGDSVK | GRNAGTMPS | Ctrl | 0.45 / 0.27 / 0.39 / 0.19 / 0.42 / 0.78 | 0.42 | 0/18 |
| GFTLNSYGIS | VIYSDGRHTFYGDSVK | GRAAGTFDP | Ctrl | nd / nd / nd / nd / nd / nd | nd | 0/18 |
| GFTLNSYGIS | VIYSDGRRTFYGDSVK | GRAAATFNS | Ctrl | nd / 3.95 / nd / nd / nd / nd | 3.95 | 1/18 (1.02) |
| GFTLNSYGIS | VIYSDGRRTFYGDFVK | GREAGTFDS | Ctrl | nd / nd / nd / nd / 0.62 / nd | 0.62 | 1/18 (2.17) |
| GFTLNSYGIS | VIYSDGRRTFYSNSVK | GRAAGTFDS | Ctrl | 1.47 / 2.15 / 1.89 / 1.25 / 1.30 / 0.90 | 1.49 | 0/18 |
| GFTLNSYGIS | VIYSDGVRTFYHDQVK | GRAIGTFDS | Ctrl | nd / nd / nd / nd / nd / nd | nd | 2/18 (1.76) |
| GFTLNSYGIS | VIYSDGRRTFYGDSVK | GQAACTFDS | Ctrl | nd / nd / nd / nd / nd / nd | nd | 0/18 |
| GNSLNSYGIS | VIYSDGRRTFYGDSVK | GRAAGTFDS | Ctrl | 2.11 / nd / 1.66 / nd / 2.31 / nd | 2.03 | 0/18 |
| GFHLNSYGVS | VIYSDGRRTFYGDSVK | GRAAGTFDP | Ctrl | nd / nd / nd / nd / nd / nd | nd | 0/18 |
| GFTLNEYGIP | VIYSDGRRTFYDDSVK | GRVAGTFDS | Ctrl | -0.44 / -0.23 / -0.70 / -0.34 / -0.79 / 0.39 | -0.35 | 0/18 |
| GFTLNSYGIS | VIYSDGERTFYGDSVK | GRATGTFDT | Ctrl | nd / nd / nd / nd / nd / nd | nd | 0/18 |
| GFTLNSYGIS | VIYSDGRRTFYGDSVK | GKAAGTFDH | Ctrl | nd / 2.37 / 2.54 / 2.83 / 1.94 / 2.00 | 2.34 | 0/18 |
| GFTLNSYGIS | VIYSDGRRCFYGDSVK | GRAMGWFDS | Ctrl | nd / nd / nd / nd / nd / nd | nd | 0/18 |
| GFSLNSYGIS | VIYSDGRRTFYQDSVK | GRAAGTFDS | Ctrl+GPLM_Gen | nd / nd / nd / 1.43 / nd / 1.79; -0.41 / -0.33 / -0.43 / -0.54 / -0.46 / 0.21 | 0.16 | 1/36 (2.06) |
| GFHLNSYGIS | VIYSDGRRTFYGDSVK | GKQAKTFDS | Ctrl | nd / nd / nd / nd / nd / nd | nd | 1/18 (1.47) |
| GFTLNSYGIS | VIYADGRRTFYGDSVK | TRNAGTFDS | Ctrl | nd / nd / nd / nd / nd / nd | nd | 0/18 |
| GFTLNSYGGS | VIYSDGRRTFYGDSVK | GRAAGTFES | Ctrl | nd / nd / nd / nd / nd / nd | nd | 0/18 |
| GFTLNSYGIS | VIYSDGRRTFYGDSVK | GNAYGTFDS | Ctrl | nd / nd / nd / nd / nd / nd | nd | 0/18 |
| GFTLNSYGIS | VIYSDGRKTFYADSVV | GRAAGIFLD | Ctrl | nd / nd / nd / nd / nd / nd | nd | 0/18 |
| GFNLNSYGIS | VIYFDGRRTFYGDSVK | GRAAGTFDS | Ctrl | nd / nd / 1.92 / nd / nd / 2.67 | 2.29 | 0/18 |
| KFTVNSYGIS | VIYSDGRRTFYGDSVK | GRAAGTDDS | Ctrl | nd / nd / nd / nd / nd / nd | nd | 0/18 |
| GFTLNSYGIS | VIYSDGHRTFYGDSVS | GNAAGTFVS | Ctrl | nd / nd / nd / nd / nd / nd | nd | 0/18 |
| GFTLNSYGIS | VIYSDGRRTFYGDSVK | GQAHGTFDS | Ctrl | nd / nd / nd / nd / nd / nd | nd | 0/18 |
| GFALNSYGIS | VIYADGMRTFYGNDVK | GRAAGTFDS | Ctrl | 0.90 / nd / nd / 0.55 / 0.45 / 1.25 | 0.79 | 0/18 |
| GFSLNSYGIS | VIYSDGRRTSYLDSVK | GRCAGTFDQ | Ctrl | nd / nd / nd / nd / nd / nd | nd | 0/18 |
| GETLNSYGIS | VIYSDGRRTFYGDSVK | GRAAGTFDL | Ctrl | 1.71 / nd / nd / nd / nd / 2.67 | 2.19 | 2/18 (2.51) |
| GFTLNSYGIS | VIYSDGRRTFYGPSVK | GRAACTFDS | Ctrl | nd / nd / nd / nd / nd / nd | nd | 0/18 |
| GFTLLSYGIS | VIYADGRRTFYGDNVK | GRAAGTFDS | Ctrl | nd / nd / nd / nd / nd / nd | nd | 0/18 |
| GQTLNSYGIS | EIYADGRRTFYIDSVK | WRAAGTFVS | Ctrl | nd / nd / nd / nd / nd / nd | nd | 0/18 |
| GFTLLDYGIS | VIYSDGRRTFYGDSVK | GRNAGTFNS | Ctrl | 1.08 / 0.33 / 0.83 / nd / 1.77 / 2.13 | 1.23 | 1/18 (1.14) |
| GQSLNSYGIS | VIYSDGRRNFYGDSVK | GRAAGTFDL | Ctrl | nd / nd / nd / nd / nd / nd | nd | 0/18 |
| GFTLNDYGIS | VIYSDGVRTFYGDSVK | HRAAGTFDS | Ctrl | 1.46 / nd / nd / nd / nd / nd | 1.46 | 0/18 |
| GFTLNSYGIS | VIYSDGRRTFYGDSVK | GRAAMTFDS | Ctrl | nd / nd / nd / nd / nd / nd | nd | 0/18 |
| GFNLNSYGIH | VIYSDGRRTFYRDQVK | GRAAGTFDS | Ctrl | nd / nd / nd / nd / nd / nd | nd | 0/18 |
| GFTLKSYGIS | VIYADGRRTFYGDSVK | GRAAGTFNL | Ctrl | 1.47 / 2.30 / 1.70 / nd / 2.40 / 2.10 | 1.99 | 2/18 (2.81) |
| GFTLNSYGIS | VIYSDGKRTEYGDSVK | GRAAGTFDS | Ctrl | nd / 0.54 / nd / 1.86 / nd / 1.07 | 1.15 | 0/18 |
| GTTLNDYGIS | VIYSDGRRTFYGDSVK | GRAAGTFDS | Ctrl | nd / nd / 1.87 / 1.63 / 1.98 / nd | 1.83 | 0/18 |

The first 7 entries again:

| CDR-H1 | CDR-H2 | CDR-H3 | group | log10 Kd, replicates | mean log10 Kd (nM) | empty controls |
|---|---|---|---|---|---|---|
| GFTLNSYGIS | VIYSDGRRTFYSDSVK | GMAAGTVDS | Ctrl | nd / nd / nd / nd / nd / nd | nd | 1/18 (1.81) |
| GFTLNSYGYS | VIYSDGRRTFYGDSVK | GRAAVTFDS | Ctrl | nd / nd / nd / nd / nd / nd | nd | 0/18 |
| GFTLNSYGIS | VIYSDGRRTFYGDSVK | GEEAGTFDS | Ctrl+GPLM_Gibbs | 0.75 / nd / 0.18 / 2.13 / 0.86 / nd; 1.49 / 1.56 / 0.96 / 0.71 / 0.94 / 1.19 | 1.08 | 0/36 |
| GFTLNSYGIS | VIYSDGRRQFYIGQVK | GLAAGTFDS | Ctrl | nd / nd / nd / nd / nd / nd | nd | 0/18 |
| GFELNSYGIS | VIYSDGRRTFYGDSVK | GRAQGTTDS | Ctrl | nd / nd / nd / nd / nd / nd | nd | 0/18 |
| GFTLNSYGIS | VIYSDGRRTFYGDNVK | GRLAGTFDS | Ctrl | nd / nd / 2.12 / 0.87 / 2.82 / 1.39 | 1.80 | 0/18 |
| GFTLLLYGIS | VIYSDGRRTFYGDSVK | GRAAGTFDS | Ctrl | nd / 3.73 / nd / nd / nd / nd | 3.73 | 1/18 (1.93) |

Of ten entries with the parent sequence, four were seen in most replicates (averages 0.34 to 2.37), three in one and three in none, so single entries are noisy.
As a blank, each scFv also met three strains without target: over all heavy chain designs, 1% of these pairings were detected, typically at 2.08 and seldom below 0.84. The control count says in how many pairings with the empty strains this scFv gave a signal, with their mean in brackets.
The authors averaged sequences with at least three values out of six and counted those with two or fewer as poor binders.
The range of this assay differs from that of the first round, and the authors advise against merging the two.

The measurements come from Li et al. 2023 (doi:10.1038/s41467-023-39022-2) through the FLAb antibody collection.